Publication PMC6107554

Legend:
HA-HDAC5 [1] = molecular target: HA-HDAC5 (UniProt Q9UQL6)
HA-HDAC5 [2] = molecular target: HA-HDAC5 (UniProt Q9UQL6); remark: listed apart in the source
HA-HDAC5 [3] = molecular target: HA-HDAC5 (UniProt Q9UQL6); assay: co-IP; HEK 293T co-transfected with Gal4-RDs and HA-HDAC5; lysis in RIPA buffer; lysate incubated with anti-HA or anti-GAL4 antibody overnight at 4 °C, protein A/G beads, five washes in PBS; western blot for the Gal4 or HA tag; band density by Quantity One, three independent experiments
HA-HDAC5 [4] = molecular target: HA-HDAC5 (UniProt Q9UQL6); remark: listed apart in the source

With “Gal4 DNA-binding domain fused to the wild-type repression domain (RD) of Tbx3 (domain or fragment)” the luciferase reporter (Gal4 sites, HEK 293T): transcriptional repression by Gal4-RD (HA-HDAC5 [1]) was 25 fold.
In the case of “Gal4-RD of Tbx3 with 604HRH606 replaced by aspartic acid (MT10) (domain or fragment)”, the luciferase reporter: loss of repression activity against the wild-type RD (HA-HDAC5 [2]) is reported as 27% and the reduction of binding activity against the wild-type RD (HA-HDAC5 [3]) is reported as 30%.
For “Gal4-RD of Tbx3 with 585LFSYPYT591 substituted by glycine (MT4) (domain or fragment)”, the luciferase reporter: loss of repression activity against the wild-type RD (HA-HDAC5 [4]) was 40% and the reduction of binding activity against the wild-type RD (HA-HDAC5 [3]) was 80%.

Like-named read-outs stand apart in the source and are kept apart here.
